Test results taken from PubChem BioAssay AID887 (National Center for Advancing Translational Sciences (NCATS), 2007).
This is a selection; strong and weak results do not stand in their true shares. Some of these compounds have results that are not shown, active ones among them. Inconclusive results are not listed. Activity calls are given as the source filed them. Calls come from the whole dose curve; as a rule, active = well fitted inhibition curve with a large enough effect; inconclusive = small, poorly fitted or top-dose-only effect; inactive = no such curve, though single readings can be large or run the other way.

Chains of the proteins cited; added tags and fusions are not shown.
UniProt P16050, whole entry: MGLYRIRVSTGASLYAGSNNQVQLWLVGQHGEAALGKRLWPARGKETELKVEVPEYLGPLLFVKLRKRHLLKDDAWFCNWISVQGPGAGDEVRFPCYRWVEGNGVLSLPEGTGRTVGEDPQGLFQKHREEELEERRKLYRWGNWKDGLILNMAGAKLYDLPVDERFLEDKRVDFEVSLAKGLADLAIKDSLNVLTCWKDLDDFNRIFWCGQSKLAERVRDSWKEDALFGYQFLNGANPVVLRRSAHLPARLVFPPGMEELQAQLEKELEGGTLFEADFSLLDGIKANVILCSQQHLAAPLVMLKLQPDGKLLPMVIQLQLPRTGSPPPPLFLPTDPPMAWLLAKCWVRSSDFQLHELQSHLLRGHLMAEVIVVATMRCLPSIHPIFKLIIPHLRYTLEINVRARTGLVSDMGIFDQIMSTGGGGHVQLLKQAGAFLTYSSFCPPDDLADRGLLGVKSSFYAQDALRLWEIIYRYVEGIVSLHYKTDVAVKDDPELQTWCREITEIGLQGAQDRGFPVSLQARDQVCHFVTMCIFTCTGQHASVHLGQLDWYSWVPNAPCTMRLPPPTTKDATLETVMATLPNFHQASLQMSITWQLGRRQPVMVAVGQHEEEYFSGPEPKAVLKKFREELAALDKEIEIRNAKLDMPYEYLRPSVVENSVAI

What follows are compounds tested against Polyunsaturated fatty acid lipoxygenase ALOX15 (Homo sapiens) (UniProt P16050) (assay: qHTS Assay for Inhibitors of 15-hLO (15-human lipoxygenase)). Details: purified 15hLO-1, xylenol orange hydroperoxide absorbance; at 11.4 µM (top of the series) unless noted.
% is set by controls: 0 for no effect and ±100 for the full control effect.
Note: nearly all actives have a fitted effect of over 55% in size.

Compound | activity change, negative = inhibition
C=C(C)C#C[C@@](O)(C(=O)OC1CCN(C)CC1)c1ccccc1 | inactive: 4.32%
CN1CC[C@H](OC(=O)[C@](O)(c2ccccc2)C2CCCC2)C1 | inactive: 7.32%
O=C(OC1CN2CCC1CC2)C(CO)(c1ccccc1)c1ccccc1 (stereo not given) | inactive: -23.1% [at 57.1 µM]
CN1CCC[C@H](OC(=O)[C@](O)(c2ccccc2)C2CCCC2)C1 | inactive: 6.54%
CN(C)c1cccc(C(=O)NCC2(N(C)C)CCCCC2)c1 | inactive: -3.21% [at 57.1 µM]
